# Source: ChEMBL document CHEMBL4184319, “Fluorescent-Labeled Selective Adenosine A2B Receptor Antagonist Enables Competition Binding Assay by Flow Cytometry” (J Med Chem, 2018)
# Molecular target: T1, Adenosine receptor A2b (Homo sapiens, UniProt P29275)
# T1 sequence (P29275 whole entry): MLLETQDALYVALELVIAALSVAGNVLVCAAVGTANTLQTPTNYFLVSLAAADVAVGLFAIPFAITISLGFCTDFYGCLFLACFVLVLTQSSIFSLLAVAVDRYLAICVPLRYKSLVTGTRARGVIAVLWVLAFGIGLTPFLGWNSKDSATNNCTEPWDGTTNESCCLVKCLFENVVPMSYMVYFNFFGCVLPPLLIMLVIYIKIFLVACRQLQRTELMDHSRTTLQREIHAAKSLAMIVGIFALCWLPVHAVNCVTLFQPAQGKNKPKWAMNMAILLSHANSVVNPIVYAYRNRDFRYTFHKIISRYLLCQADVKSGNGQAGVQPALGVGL
# Test: Displacement of PSB-12105 from recombinant human adenosine A2B receptor expressed in CHO cell membranes preincubated for 30 mins followed by PSB-12105 addition measured after 20 mins by flow cytometric method
# Assay type: cell-based
# Summary of the method: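 Live CHO-hA2B cells were pre-treated with ADA (2 U/mL, 2 h, 37°C), detached with 5 mM EDTA, and resuspended in HBSS with 2 U/mL ADA at 2.5×10^5 cells/well in 96-well format. Antagonists pre-incubated 30 min at 37°C, then fluorescent ligand (100 nM) added for 20 min at 37°C. 3-5 independent experiments in duplicate.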
smiles,measurement,value
Nc1nc2ccc(Cl)cc2c2nc(-c3ccco3)nn12 [CGS-15943],IC50,60.7 nM
